According to publication PMC6579712 (Xenobiotica; the fate of foreign compounds in biological …, 2018):

What was measured:
[1] = ARV concentrations in brain tissue, CSF and plasma by LC-MS/MS, NHPs; conditions: NHP
[2] = IR-MALDESI mass spectrometry imaging of EFV in NHP brain tissue; type: in vivo, rhesus macaques

## O=C1Nc2ccc(Cl)cc2[C@@](C#CC2CC2)(C(F)(F)F)O1 [EFV, efavirenz]
[1]
  fold higher brain tissue concentration than other ARVs: 9- to 36 fold
[2]; infected vs uninfected NHPs
  fold lower brain tissue concentration in infected NHPs: 7 fold
[2]; uninfected NHPs, MSI
  fold higher EFV concentration in white matter relative to grey matter: 2 fold
